According to patent publication US11524945B2, “Compounds for treating ILK-mediated diseases” (The Cleveland Clinic Foundation, priority 2018, dated 2022):

Experiments:
MDA-MB-231 cells = assay: Proliferation of triple negative breast cancer MDA-MB-231 cells; format: cell-based; settings: compounds at final 2 μM, FIG. 5 panel B
Protocol: (§1) […]. […] Cells were seeded at 20,000 cells/ml in 12 well plates in complete media. On day 3, the compounds were added at final 2 μM and the cells were counted every 3 days. […] Cells were seeded at 10,000 cells/ml in 12 well plates in complete media. The compounds were added at final 2 μM on day 2 and the cells were counted every 2 days.
(§2) Since ILK-dependent actin assembly regulates actin stress fibers, which in turn affects many cellular processes such as cell spreading, proliferation, and survival, we expected that Csbl-1 would interfere with ILK-dependent dysfunctional cellular behaviors. We therefore decided to examine the effect of Csbl-1 on MDA-MB-231— a triple negative breast cancer (TNBC) cell line. This cell line was chosen for the following reasons: (i) ILK is highly elevated in this metastatic cell line (see, FIG. 5a in Mongroo et al., 2004; FIG. 1E in Hsu et al., 2015; FIG. 1A in Qu et al., 2017)); (ii) it is a major type of TNBC cell line and has been extensively characterized (Holiday et al., 2011); (iii) currently there is no proven targeted therapy for TNBC (Denkert et al., 2017) so any effect of Csbl-1 would facilitate the development of therapeutics to treat this devastating disease. […].

MCF10a cells = assay: Proliferation of normal breast MCF10a cells; format: cell-based; settings: compounds at final 2 μM, FIG. 5 panel A
Protocol: as §1, §2

C#Cc1cccc(Nc2ncnc3cc(OCCOC)c(OCCOC)cc23)c1 [Erlotinib, reference compound]
effect on proliferation of MDA-MB-231 cells (MDA-MB-231 cells): little effect
effect on proliferation of MCF10a cells (MCF10a cells): significant toxicity
